Measurements: patent US6200963A, “Aryl sulfonic acids as FSH antagonists” (American Home Products Corporation, priority 2000, dated 2001)

How the values were obtained:
[1] = molecular target: T1, FSH receptor (Rattus norvegicus, UniProt P20395); test: In Vitro Bioassay of Agonists and Antagonists to the FSH Receptor using Primary Cultures of Rat Granulosa (estradiol secretion); assay type: cell-based; design: immature female Sprague-Dawley rats (Charles River Laboratories, Wilmington, Mass.) were used as donors for ovarian granulosa cells; endogenous in cells; host or cells: primary ovarian granulosa cells of immature female Sprague-Dawley rats; conditions: previously calculated during characterization of the bioassay
T1 sequence (P20395 18-692): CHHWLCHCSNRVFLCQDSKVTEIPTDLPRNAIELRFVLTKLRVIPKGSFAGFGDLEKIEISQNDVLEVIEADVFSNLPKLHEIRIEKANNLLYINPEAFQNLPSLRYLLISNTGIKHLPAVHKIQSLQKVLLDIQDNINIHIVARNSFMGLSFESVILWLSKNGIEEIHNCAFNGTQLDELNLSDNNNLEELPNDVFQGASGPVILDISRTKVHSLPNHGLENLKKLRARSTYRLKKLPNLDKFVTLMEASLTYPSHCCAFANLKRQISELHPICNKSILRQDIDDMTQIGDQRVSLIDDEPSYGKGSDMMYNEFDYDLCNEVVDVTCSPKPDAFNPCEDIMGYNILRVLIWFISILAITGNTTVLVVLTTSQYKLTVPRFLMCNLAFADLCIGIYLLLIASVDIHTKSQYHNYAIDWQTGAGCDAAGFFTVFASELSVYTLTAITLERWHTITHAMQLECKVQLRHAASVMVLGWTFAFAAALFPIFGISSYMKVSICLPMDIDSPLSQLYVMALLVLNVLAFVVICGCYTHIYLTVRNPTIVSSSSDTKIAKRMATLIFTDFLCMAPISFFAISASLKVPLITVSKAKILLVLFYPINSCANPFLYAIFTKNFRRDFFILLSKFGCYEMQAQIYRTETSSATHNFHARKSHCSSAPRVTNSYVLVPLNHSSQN
Excerpt: In Vitro Bioassay of Agonists and Antagonists to the FSH Receptor using Primary Cultures of Rat Granulosa
The following procedure was used as a low-throughput functional screening assay to study in vitro efficacy of compounds found to be agonists or antagonists of the FSH receptor.
Materials and Methods: Reagents
Compound Vehicle: Stock compounds were solubilized in an appropriate vehicle, preferably PBS (phosphate buffered saline) or DMSO (dimethyl sulfoxide), at a concentration of 0.1 M. The compounds were subsequently diluted in sterile challenge medium [McCoy's 5A medium (Gibco/BRL, Grand Island, N.Y.) supplemented with 5 mg/mL insulin, 5 mg/mL transferrin, 5 ng/mL sodium selenite (ITS, Sigma Chemical Co., St. Louis, Mo.), 146 mg/mL L-glutamine, 100 nM testosterone, 100 nM DES and 100 U/mL penicillin/10 mg/mL streptomycin/250 ng/mL amphotericin B (antibiotic/antimycotic, Gibco) and 0.1% bovine serum albumin (Sigma, St. Louis, Mo.)] prior to use in the assay. […]
Preparation of Granulosa Cells: Twenty-four day-old immature female Sprague-Dawley rats (Charles River Laboratories, Wilmington, Mass.) were used as donors for ovarian granulosa cells. […] After the final spin, the cells were resuspended by gentle trituration in 25 mL serum-free medium, an aliquot counted in a hemocytometer and viability estimated by trypan blue exclusion. […]

[2] = molecular target: T2, FSH receptor (Homo sapiens, UniProt P23945); test: In Vitro Bio-assay of Agonists and Antagonists to the FSH Receptor (cAMP accumulation in CHO-3D2 cells); assay type: cell-based; design: expressed in transfected cells; host or cells: CHO-3D2 cells; conditions: agonist mode, reference
T2 sequence (P23945 18-695): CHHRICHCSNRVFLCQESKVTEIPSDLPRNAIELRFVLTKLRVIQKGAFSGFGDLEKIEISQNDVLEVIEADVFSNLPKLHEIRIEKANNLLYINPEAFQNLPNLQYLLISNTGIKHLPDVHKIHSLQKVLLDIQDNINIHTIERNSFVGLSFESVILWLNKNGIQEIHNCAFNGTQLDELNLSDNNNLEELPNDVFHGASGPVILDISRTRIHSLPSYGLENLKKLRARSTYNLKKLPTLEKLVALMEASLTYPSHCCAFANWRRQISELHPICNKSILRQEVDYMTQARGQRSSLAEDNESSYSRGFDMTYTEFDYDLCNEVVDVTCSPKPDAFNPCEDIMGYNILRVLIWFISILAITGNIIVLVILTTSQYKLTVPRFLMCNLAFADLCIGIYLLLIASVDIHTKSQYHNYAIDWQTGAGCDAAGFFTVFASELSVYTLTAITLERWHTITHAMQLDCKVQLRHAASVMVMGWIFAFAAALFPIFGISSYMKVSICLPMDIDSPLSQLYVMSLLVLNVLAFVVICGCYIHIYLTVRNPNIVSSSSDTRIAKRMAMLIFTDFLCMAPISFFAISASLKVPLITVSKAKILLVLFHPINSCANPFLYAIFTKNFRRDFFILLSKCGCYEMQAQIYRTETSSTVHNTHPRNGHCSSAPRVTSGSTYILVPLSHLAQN
Excerpt: In Vitro Bio-assay of Agonists and Antagonists to the FSH Receptor
The following procedure was used as a screening assay to verify in vitro efficacy of compounds found to bind to the FSH receptor in the binding assay.
Compound Vehicle: Stock compounds were solubilized in an appropriate vehicle preferably PBS/0.1% Bovine Serum Albumin (BSA; Sigma Chemical Co., St. Louis, Mo.). The compounds were subsequently diluted in sterile assay medium (Optimem (Gibco/BRL, Grand Island, N.Y.)/0.1% BSA) prior to use in the bio-assay.
Preparation of CHO-3D2 Cells; CHO-3D2 cells were plated into 96-well Nunc tissue culture plates at a density of 30,000 cells/well in DMEM/F12 medium (Gibco/BRL, Grand Island, N.Y.) supplemented with 5% Fetal Bovine Serum (Hyclone, Fetal Clone II), 2 mM L-glutamine and penicillin/streptomycin (100 U/mL). Cells were plated one day prior to performing the bio-assay.
Assay: On the day of assay, the wells were washed two times with 100 ul/well of pre-warmed (37 deg C.) assay medium. After aspirating the second wash, an additional 100 ul of assay medium was added to each well and the cells pre-incubated for 30-45 minutes at 37 deg C. in a humidified incubator with 5% CO2/95% air. The cells were then challenged with varying dilutions of the test substance(s) in a 50 ul total incubation volume in assay medium for 30 minutes at 37 deg C in the humidified incubator. The challenge was terminated by the addition of 50 ul of 0.2 N HCl to each well. cAMP accumulation in the medium was measured by radioimmunoassay.
Experimental Groups: In the 96-well format, the plate is organized into 12 columns each containing 8 rows of wells. The plate was split in half to test a single compound in both agonist and antagonist mode on the same plate.
For agonist mode, compounds were tested using 5 different concentrations in a dose-response paradigm using one column as a control (challenge medium alone) in agonist mode.
For antagonist mode, compounds were tested in a dose-response paradigm versus a constant level of purified human FSH (the ED20 (1.85 ng/mL); previously calculated during characterization of the bio-assay). The 96-well format allowed for the capability to test 4 columns of compound, using one of the remaining columns for negative control (challenge medium alone) and the other remaining column for ampositive control (ED20 of FSH alone). […]
Analysis of Results: cAMP accumulation was expressed as fmol/mL. cAMP accumulation in agonist mode, or the ability of the compound to inhibit hFSH-induced cAMP accumulation in antagonist mode was compared to the appropriate negative and positive controls. Data were analyzed statistically by analysis of variance and significant differences between treatments and control determined by Dunnett's test. […]

[3] = four-parameter logistic equation

ED50 of FSH, estradiol secretion [1]: 0.5 ng/mL
apparent ED20, cAMP accumulation [2, 3]: 1.85 ng/mL
apparent ED50, cAMP accumulation [2, 3]: 6.03 ng/mL
apparent ED80, cAMP accumulation [2, 3]: 22.55 ng/mL
Substance: hFSH: purified or recombinant human FSH
cAMP accumulation ([2]; in words): dose-dependent increase in cAMP accumulation
